High-throughput results (PubChem BioAssay)
miR-21 reporter: miR-21 reporter, rising signal; HeLa miR-21 FLuc reporter, luciferase, 48 h; Potency, µM (titrated, usually from 38.3 µM), for the others: at the top dose reporter change, positive = more light; 340,000 tested, under 10 active; AID 2288; active = well fitted rising curve with a large enough effect; inconclusive = small, poorly fitted or top-dose-only effect; inactive = no such curve, though single readings can be large or run the other way;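 also: % of control where 0% means no effect; miR-21 action dims this reporter so a rising signal means less miR-21 action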
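Luminescence from a firefly luciferase reporter carrying a miR-21 binding site downstream, stably expressed under a CMV promoter in HeLa cells that make miR-21 endogenously, reports miRNA modulation after 48 h compound exposure up to approximately 40uM final.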
IL-2 act: activates IL-2 in a cell-based reporter assay. IL-2 activation reporter assay, cell-based qHTS; stimulated with anti-CD3/CD4/CD28 beads; in transgenic mouse T cells. activation, % (series mostly up to about 46 µM). AID 652025. hit rate 0.065% among 360,000; in the data active = activation above about 50%; inconclusive = mostly about 30% to 49%; note: 0% is about no effect
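Quantitative HTS in unstimulated transgenic mouse T cells, with memory T cells as non-tolerant control and PMA/ionomycin as tolerance-bypass control. Compound pretreatment lasted 60 minutes before 18 h bead stimulation; EGFP/DsRed fluorescence read.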
Nrf2 block: Nrf2 pathway inhibition; A549 ARE-Fluc reporter, luciferase luminescence, 18-24 h; Potency, µM (titrated, usually from 46 µM), without a hit: top-dose activity change, negative = inhibition, actives largely listed as inhibitors; hit rate 2.1% among 360,000; note: potency is the fitted concentration of half-maximal effect; % is set by controls: 0 for no effect and ±100 for the full control effect; nearly all actives have a fitted effect of over 60% in size
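A549 ARE_Fluc cells, 5000/well, 5% FBS OPTI-MEM; compounds in dose-response, 18-24 h at 37 °C/5% CO2; CellTiter-Fluor viability read (Ex 405/Em 525), then BugLite luciferase luminescence = Nrf2 activity.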
Nrf2 ARE act: activates Nrf2 signaling; AREc32 ARE-luciferase reporter (MCF7-derived line), luminescence, 24 h; Potency, µM (titrated, usually from 46.1 µM), without a hit: at the top dose activation, usual class: activators; hit rate 0.31% among 410,000; note: potency is the fitted concentration of half-maximal effect; % of control where 0% means no effect; nearly all actives have a fitted effect of over 65% in size
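Quantitative high-throughput format: AREc32 reporter cells, 1000 per well, received compound by pin transfer and were incubated 24 hr at 37 deg C, 5% CO2, before Steady-Glo luminescence detection.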
A549 tox: counter-screen for Nrf2 inhibitors: cytotoxicity in A549 cells | hit rate 0.16% among 390,000 | Potency, µM (series often up to 46 µM), inactives show at the top dose activity change, negative = cytotoxicity, usual class: inhibitors | A549 ARE-Fluc cells, CellTiter-Fluor viability, 18-24 h | AID 504648; note: potency is the fitted concentration of half-maximal effect; % is set by controls: 0 for no effect and ±100 for the full control effect
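Cytotoxicity counterscreen: CellTiter-Fluor fluorescence was measured in A549 ARE_Fluc cells after 18-24 h of compound exposure in a concentration series. The subsequent BugLite luminescent read reports ARE-luciferase activity.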
ClpP mod: qHTS Assay for Activators of ClpP. hit rate 1.9% among 340,000. Potency, µM (series often up to 57.5 µM), inactives show at the highest dose activity change, negative = active. purified B. subtilis ClpP, FRET peptide cleavage, 20 min. ATP-dependent Clp protease proteolytic subunit (Bacillus subtilis (strain 168)), P80244; active = well fitted falling curve with a large enough effect; inconclusive = small, poorly fitted or top-dose-only effect; inactive = no such curve, though single readings can be large or run the other way; note: potency is the fitted concentration of half-maximal effect; the source files actives as falling curves though it sought activators and does not explain the sign; nearly all actives have a fitted effect of over 65% in size
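Purified B. subtilis ClpP, 10 microg/mL final in Tris/HCl pH8 with KCl, BSA, glycerol and Tween-20, cleaved an Abz/nitrotyrosine-quenched decapeptide. Fluorescence (ex 320, em 430) was read at 0 and 20 min at room temperature. Delta was normalized to 5.8 microM ADEP and DMSO/no-enzyme controls.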
* marks the source's active call; other numbers are inactive results; ? = inconclusive; . = no result; ! = repeats disagree. An excerpt weighted towards active compounds, which were near 3.7% of everything screened. Unless noted, calls come from the whole dose curve; as a rule, active = well fitted curve in the direction sought with a large enough effect; inconclusive = small, poorly fitted or top-dose-only effect, or another doubt; inactive = no such curve, though single readings can be large; an effect the other way counts as inactive or inconclusive.

Key to letters – A = miR-21 reporter; B = IL-2 act; C = Nrf2 block; D = Nrf2 ARE act; E = A549 tox; F = ClpP mod
CCCCCCCCCCCCCCCCCCN(CCCCCCCCCCCCCCCCCC)c1ccc(C=O)cc1
  A: .; B: .; C: .; D: .; E: .; F: 1%
CCCCNC(=O)COC(=O)c1ccc(Cl)c(S(N)(=O)=O)c1
  A: 1%; B: 0; C: 1%; D: -1%; E: -1%; F: 14µM*
CC(C)CNC(=O)COC(=O)c1ccc(Cl)c(S(N)(=O)=O)c1
  A: 0%; B: 0; C: 17%; D: 0%; E: -4%; F: 3%
COC(=O)c1cc2oc3ccccc3c2n1CC(=O)Nc1ccc(OC)c(OC)c1
  A: -11%; B: .; C: 3%; D: 7%; E: -19%; F: 4%
Cc1nn2c(c1-c1ccccc1)NC1=C(C(=O)CCC1)C2c1ccccc1 (stereo unspecified)
  A: 0%; B: 2; C: .; D: 1%; E: 2%; F: 8.9µM*
O=C(Nc1ccc(-c2cn3c(n2)SCC3)cc1)c1ccc2ccccc2n1
  A: 2%; B: 0; C: ?; D: 4%; E: -19%; F: 22µM*
Cc1onc(-c2ccccc2)c1C(=O)N/N=C/c1c[nH]c2ccccc12
  A: 2%; B: -4; C: 15µM*; D: 8%; E: ?; F: .
Cn1c(=O)c2[nH]c(C3CCCC3)nc2n(C)c1=O
  A: .; B: -1; C: 6.5µM*; D: 1%; E: -9%; F: -2%
CCC1CN(C(=O)NCc2ccccc2)c2cc(C)ccc2O1 (stereo unspecified)
  A: ?; B: -5; C: ?; D: 0%; E: ?; F: -1%
CCC1CN(C(=O)NCc2ccc(C)cc2)c2cc(C)ccc2O1 (stereo unspecified)
  A: ?; B: -2; C: 21µM*!; D: 1%; E: ?; F: 1%

Entries listed so far that contain an NH in an aromatic ring, in the order listed:
Key to letters – A = miR-21 reporter; B = IL-2 act; C = Nrf2 block; D = Nrf2 ARE act; E = A549 tox; F = ClpP mod
Cc1onc(-c2ccccc2)c1C(=O)N/N=C/c1c[nH]c2ccccc12
  A: 2%; B: -4; C: 15µM*; D: 8%; E: ?; F: .
Cn1c(=O)c2[nH]c(C3CCCC3)nc2n(C)c1=O
  A: .; B: -1; C: 6.5µM*; D: 1%; E: -9%; F: -2%

Continuation.
Key to letters – A = miR-21 reporter; B = IL-2 act; C = Nrf2 block; D = Nrf2 ARE act; E = A549 tox; F = ClpP mod
Cc1ccc(Cn2cccc2C2=NC(C)(C)CO2)cc1
  A: 1%; B: .; C: 14%; D: 0%; E: 12%; F: 0%
CCN(CC)S(=O)(=O)c1ccc(C(O)=C(C#N)c2nc3ccccc3n2C)cc1
  A: .; B: 0; C: 23µM*; D: -1%; E: -18%; F: .
Cn1c(/C(C#N)=C(\O)c2ccccc2Cl)nc2ccccc21
  A: .; B: 0; C: ?; D: 13%; E: 2%; F: .
Cc1cccc(C)c1NC(=O)CSc1nc(COc2ccccc2)nc2ccccc12
  A: -8%; B: -2; C: 3%; D: 0%; E: ?; F: 1%
Cc1cccc(NC(=O)CSc2nc(COc3ccccc3)nc3ccccc23)c1C
  A: 6%; B: 1; C: 26µM*; D: 0%; E: ?; F: -1%
Cc1cc2nc(-c3ccc(SCC(=O)Nc4ccc(S(=O)(=O)NC5CC5)cc4)nc3)[nH]c2cc1C
  A: -18%; B: 1; C: ?; D: 0%; E: -2%; F: 8.9µM*
CCOC(=O)Nc1cccc(OCC(=O)Nc2ccc(OC)cc2OC)c1
  A: 8%; B: -1; C: 15µM*; D: 2%; E: ?; F: -2%
CCOC(=O)c1ccc(N2CCN(c3ccccc3F)CC2)c(NC(=O)Nc2cccc(OC)c2)c1
  A: ?; B: 0; C: -12%; D: 2%; E: -1%; F: 25µM*
CCOC(=O)c1cccc(NC(=O)Nc2cc(OC)ccc2OC)c1
  A: -5%; B: -4; C: 21µM*; D: 3%; E: -8%; F: -3%
Cc1ccc(NS(=O)(=O)c2ccc3[nH]c(=O)[nH]c3c2)cc1C
  A: .; B: .; C: -20%; D: .; E: -1%; F: .

(next part)
Key to letters – A = miR-21 reporter; B = IL-2 act; C = Nrf2 block; D = Nrf2 ARE act; E = A549 tox; F = ClpP mod
COc1cc(NC(=O)C2CCN(S(=O)(=O)c3c(C)noc3/C=C/c3ccccc3F)CC2)cc(OC)c1OC
  A: 18%; B: .; C: .; D: 6%; E: ?; F: 1%
COc1ccc(CCNS(=O)(=O)c2ccc(N3CCCCS3(=O)=O)cc2)cc1
  A: ?; B: .; C: .; D: 0%; E: -4%; F: -7%
Cn1c(CNc2ccc(O)cc2)nc2ccccc21
  A: -63%; B: -2; C: -17%; D: ?; E: 0%; F: -5%
Cc1ccc(NCc2nc3ccccc3n2C)cc1
  A: -41%; B: 0; C: .; D: 5%; E: -1%; F: 14µM*
COC(=O)c1ccc(COc2ccccc2/C=N/Nc2cccc(C(=O)O)c2)cc1
  A: -28%; B: 0; C: -4%; D: 1%; E: -15%; F: -2%
COC(=O)c1ccc(COc2ccccc2/C=C/C(=O)c2ccc(OCC(=O)O)cc2)cc1
  A: -8%; B: 0; C: 2%; D: 18µM*; E: -1%; F: .
CCOc1ccc(-c2cc(C)n3nc(C(N)=O)cc3n2)cc1
  A: 11%; B: -3; C: ?; D: 2%; E: -2%; F: 16µM*
